# Measurements as given in publication PMC12511557, “WEE1 inhibitors synergise with mRNA translation defects via activation of the kinase GCN2” (Nature Communications, 2025).
# Amino acid sequences for entries named in this document (tags omitted). A change or cut given only in a name is not applied to a line headed by its entry.
# UniProt Q9P2K8: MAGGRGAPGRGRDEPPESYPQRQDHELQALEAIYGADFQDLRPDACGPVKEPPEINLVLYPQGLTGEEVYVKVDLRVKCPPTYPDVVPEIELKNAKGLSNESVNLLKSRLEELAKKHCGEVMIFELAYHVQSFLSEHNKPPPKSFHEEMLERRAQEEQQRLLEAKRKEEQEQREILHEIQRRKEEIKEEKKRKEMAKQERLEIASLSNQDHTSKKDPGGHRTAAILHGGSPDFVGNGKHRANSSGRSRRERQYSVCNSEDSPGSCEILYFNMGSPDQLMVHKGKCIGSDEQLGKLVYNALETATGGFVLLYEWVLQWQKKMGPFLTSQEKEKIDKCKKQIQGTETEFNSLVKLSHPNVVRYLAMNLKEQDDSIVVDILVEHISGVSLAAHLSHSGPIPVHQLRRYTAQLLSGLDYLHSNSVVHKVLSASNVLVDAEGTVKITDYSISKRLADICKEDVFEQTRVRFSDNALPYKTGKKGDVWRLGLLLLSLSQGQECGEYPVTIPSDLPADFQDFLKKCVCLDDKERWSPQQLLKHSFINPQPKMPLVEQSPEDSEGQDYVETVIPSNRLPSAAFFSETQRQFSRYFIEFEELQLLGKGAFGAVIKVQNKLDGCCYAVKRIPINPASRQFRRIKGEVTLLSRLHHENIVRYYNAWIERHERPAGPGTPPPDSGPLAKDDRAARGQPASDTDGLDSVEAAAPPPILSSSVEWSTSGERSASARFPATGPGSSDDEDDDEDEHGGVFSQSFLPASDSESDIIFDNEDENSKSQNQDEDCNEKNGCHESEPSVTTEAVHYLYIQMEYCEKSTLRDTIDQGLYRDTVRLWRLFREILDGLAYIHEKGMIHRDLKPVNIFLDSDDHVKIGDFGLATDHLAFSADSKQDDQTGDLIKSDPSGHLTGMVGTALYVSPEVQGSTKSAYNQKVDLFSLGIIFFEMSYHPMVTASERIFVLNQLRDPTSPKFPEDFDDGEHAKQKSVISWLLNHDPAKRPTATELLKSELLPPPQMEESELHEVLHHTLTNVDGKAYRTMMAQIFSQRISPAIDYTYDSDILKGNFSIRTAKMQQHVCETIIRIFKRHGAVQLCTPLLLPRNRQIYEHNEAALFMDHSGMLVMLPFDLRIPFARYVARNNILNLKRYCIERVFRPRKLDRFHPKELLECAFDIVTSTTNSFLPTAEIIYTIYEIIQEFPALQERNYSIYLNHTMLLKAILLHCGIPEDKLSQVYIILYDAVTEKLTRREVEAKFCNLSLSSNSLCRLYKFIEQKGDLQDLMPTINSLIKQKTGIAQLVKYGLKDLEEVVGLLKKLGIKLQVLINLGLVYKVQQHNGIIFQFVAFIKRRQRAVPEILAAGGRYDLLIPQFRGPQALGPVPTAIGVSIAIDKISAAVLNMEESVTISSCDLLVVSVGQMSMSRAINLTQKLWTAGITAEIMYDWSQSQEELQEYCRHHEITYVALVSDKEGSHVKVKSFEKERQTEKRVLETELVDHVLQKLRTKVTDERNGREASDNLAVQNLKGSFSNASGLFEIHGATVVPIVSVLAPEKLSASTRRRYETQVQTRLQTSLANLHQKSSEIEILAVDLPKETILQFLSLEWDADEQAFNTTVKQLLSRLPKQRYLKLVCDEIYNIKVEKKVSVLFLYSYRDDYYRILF
# Target: GCN2 (Homo sapiens, UniProt Q9P2K8)
# Parameters: gene EIF2AK4
smiles,measurement,value
CCOc1cc2ncc(C#N)c(Nc3ccc(OCc4ccccn4)c(Cl)c3)c2cc1NC(=O)/C=C/CN(C)C [Neratinib],"in vitro GCN2 phosphorylation assay with ATP, western blot (activation); referenc","phosphorylation of GCN2 induced by AZD1775 was comparable to that of the known GCN2 activator, and EGFR inhibitor, Neratinib"
